Binding of CDR-mutated scFvs to a peptide of the spike HR2 region

Reference: Li et al. 2023, doi:10.1038/s41467-023-39022-2. File: FLAb, binding data.

The target is the same throughout: PDVDLGDISGINAS, from the HR2 region of SARS-CoV-2 spike.

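The starting antibody came from a phage panning campaign against this peptide. The variants were designed computationally from a first round of random CDR variants and then made and measured. Several design methods are mixed in this list. AlphaSeq pools MATa yeast showing the antibodies with MATalpha yeast showing the peptide. After mating in shaken culture at 30 °C for 16 h, diploids were selected and their barcode pairs sequenced. Scores were corrected for input abundance and mapped to Kd with protein pairs of known affinity run in the same pool. There are six technical replicates.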

The variants keep the heavy chain, the linker and the frameworks of Ab-14 (scFv order VH, the linker GGGGSGGGGSGGGGS, VL).
VH: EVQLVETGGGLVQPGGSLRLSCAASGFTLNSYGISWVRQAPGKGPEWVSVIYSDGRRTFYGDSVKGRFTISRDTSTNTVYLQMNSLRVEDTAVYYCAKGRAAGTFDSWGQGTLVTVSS
VL: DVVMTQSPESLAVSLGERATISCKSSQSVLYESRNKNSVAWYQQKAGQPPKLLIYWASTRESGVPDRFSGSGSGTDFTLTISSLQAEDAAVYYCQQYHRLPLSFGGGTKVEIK

Each variant is given by its three light chain CDRs, as the data file delimits them; those of the parent are KSSQSVLYESRNKNSVA, WASTRES, QQYHRLPLS. This list holds designs with more than six substitutions. Numbers give log10(Kd / nM), so 0 is 1 nM and 3 is 1 µM. Smaller is tighter. A pair that was not seen in that replicate is written "ND"; this usually means weak binding, but a binder can also be missed.

Variant MISQVTGLGQRHRNNVA, QTSMRET, QQYDRLPLI showed 0.51, 0.58, 0.51, 0.32, 0.36, 0.33.
Variant KLVQSEGYESRNKNNVA, AASQRES, QQYHRLPLS showed 0.39, 0.55, 0.09, 0.09, 0.01, 0.45.
Variant NLEMFTGMLNMYASSIA, NAHCLVQ, QQYYRLPIS showed 1.60, ND, 2.12, 1.68, 1.96, 2.07.
Variant HITYGMQVAGRHSKSIA, QAETREK, QQYDRLPLT showed 0.57, 0.26, 0.47, 0.68, 1.83, 0.58.
Variant MFSQSVMYGSFMRNSVA, QTTTREN, QQYDRLPLS showed 1.28, 1.69, 1.13, 1.19, 1.37, 1.61.
Variant KLNEYKHETEEKTQNIA, DQTIRVP, QQYAHLPLA showed 0.36, 0.07, 0.25, 0.08, 0.29, 0.28.
Variant KLSSFHNVESINKSNVA, EMVTRES, QQYDRLPLS showed ND, 2.23, 2.35, ND, ND, ND.
Variant KISMLQRYQSEAKNNIA, EMSRREE, QQYHRLPLS showed -0.07, 0.02, 0.07, 0.03, -0.19, 0.24.
Variant KLSSITGHMQIEKNNVA, EMETREN, QQYDRLPLS showed 0.44, 0.73, 0.42, 0.61, 0.34, 0.71.
Variant TISQMFLGESRHRNSVA, QASTRES, QSYDRLPLS showed 0.73, 0.35, 0.20, 0.43, 0.25, 0.29.
Variant KLQSVTGTEKVHGNNVA, EMETREK, QQYNRLPLS showed -0.23, -0.21, -0.25, -0.10, -0.13, 0.35.
Variant ALSQSMDMTSRNKNSVA, DLSTRVN, QQYHRLPLS showed 0.17, 0.21, 0.17, -0.05, 0.11, 0.25.
Variant KISQSINVGSKNKNSLA, EMSTREF, QDYHRLPLS showed 0.41, 0.09, 0.14, -0.21, 0.01, 0.15.
Variant KVSIFMLTMDNAWSSIA, NSAATRT, QQYQRLPLS showed ND, 3.62, ND, ND, ND, ND.
Variant NLVGRVPDMYDGRNAIA, DMHCRAT, QQYFRLPLA showed 2.17, 1.29, 1.59, 0.82, 1.24, 1.29.
Variant TLGGVMDMTTKNVNSVA, DLTTRGN, QQYHRLPLS showed 0.27, 0.40, 0.31, 0.29, 0.28, 0.31.
Variant HISYSMNHLSKNKNSVA, NQQTRES, QQYHRLPLS showed ND, 3.82, ND, ND, 2.28, ND.
Variant KLSQSVGYHSRNKSRVA, DNSTRES, QQYDRLPLS showed ND, ND, 2.44, 2.15, ND, ND.
Variant KLSQSTWYESRMKNSVA, NASLREQ, QQYHRLPLS showed 0.20, 0.18, -0.05, 0.10, 0.08, 0.38.
Variant KFSQMVNSMSVSHSAVA, EMSTRES, QQYNRLPLS showed 0.34, 0.35, -0.06, 0.28, 0.23, 0.35.
Variant KVDQWVEYESRNKNSVA, SASQRFS, QQYHRLPLS showed 0.52, 0.73, 0.76, 0.51, 0.45, 0.46.
Variant KYSGSELGEQRNANSVA, NASTREE, QQYHRLPLS showed 0.58, 0.14, 0.55, -0.14, 0.08, 0.24.
Variant KLTQTMRFEQKKKNNIA, EVSTRSQ, QQYVRLPLA showed ND, ND, ND, 0.99, 1.38, 2.76.
Variant KVSEFMRGLMGRKDSIA, DNETRGA, QQYDRLPLS showed 1.68, 2.13, 1.24, 1.95, 2.79, 2.02.
Variant KMSQLQLYEWRNFNSVA, NASYRES, QQYHRLPLS showed 0.28, 0.39, 0.22, 0.34, 0.62, 0.40.
Variant KVEMSVDYEDRNKNSVA, HASVRES, QQYHRLPLS showed -0.10, -0.18, -0.10, -0.29, -0.28, -0.01.
Variant HVAQTRQEDISNKNNVA, EGSVVIS, QQYSKLPFS showed 0.73, 0.97, 0.89, 0.78, 0.84, 0.97.
Variant KLSQWVEMESRWWNSVA, SASQRNE, QQYHRLPLS showed 0.90, 0.21, 1.12, 0.49, 0.72, 0.58.
Variant SLFFHDDQKQEESNNIA, HASLRSV, QQYMHLPLV showed 0.67, 1.07, 0.97, 0.53, 0.27, 0.66.
Variant KLAQGIYEPVRKSNNIA, EASHVGD, QQYERLPLE showed ND, ND, ND, 1.31, ND, 0.83.
Variant MMSSLMGYESRHINNVA, QTTTRES, QQYDRLPLV showed 0.71, 0.64, 0.50, 0.49, 0.79, 0.69.
Variant MMSQVTGQGMRHRNNVA, QTETREP, QQYDRLPLV showed 0.76, 0.57, 0.79, 0.42, 0.56, 0.77.
Variant KLSMTTEQEHVNRNSVA, ELVTRIS, QQYNRLPLS showed 1.28, 1.38, 1.66, 1.33, ND, ND.
Variant KIGHGLTTESRNKNSVA, QTETREE, QHYHRLPLS showed 1.35, 1.21, 0.80, 0.88, 1.38, 1.03.
Variant TISQSWNMTSKGKNSVA, QAEMRES, QQYDRLPLS showed 0.91, 0.74, 0.99, 1.07, 1.80, 1.05.
Variant KLVGSWQYEDRNKNSVA, HASQRCS, QQYHRLPLS showed 0.37, 0.28, 0.06, 0.24, 0.29, 0.27.
Variant KLSPEVEYESRLKNSVA, NASTRLE, QQYHRLPLS showed 0.31, 0.14, 0.43, 0.43, 0.24, 0.79.

The 3 strongest on average among those seen in every replicate, once more:

The variant KVEMSVDYEDRNKNSVA, HASVRES, QQYHRLPLS gave -0.10, -0.18, -0.10, -0.29, -0.28, -0.01.
The variant KLQSVTGTEKVHGNNVA, EMETREK, QQYNRLPLS gave -0.23, -0.21, -0.25, -0.10, -0.13, 0.35.
The variant KISMLQRYQSEAKNNIA, EMSRREE, QQYHRLPLS gave -0.07, 0.02, 0.07, 0.03, -0.19, 0.24.

The range of this assay differs from that of the first round, and the authors advise against merging the two. In the paper, a design with two or fewer of six values counts as a poor binder. Of ten entries with the parent sequence, four were seen in most replicates (averages 0.34 to 2.37), three in one and three in none, so single entries are noisy. As a blank, each scFv also met three strains without target: over all light chain designs, 4% of these pairings were detected, typically at 2.64 and seldom below 1.59.